Values quoted from earlier work as cited in patent US6197768A, “Pyridocarbazole derivatives having cgmp-pde inhibitory activity” (Mochida Pharmaceutical Co., Ltd., priority 1996, dated 2001).

Test system: vascular smooth muscle cells isolated from aortic media
Conditions: Garg et al. 1989; Nakaki et al. 1990; cited from earlier work

O=[N+]([O-])O[C@H]1CO[C@H]2[C@@H]1OC[C@H]2O[N+](=O)[O-]
proliferation of cultured vascular smooth muscle cells (in words): suppressed
